Tested on: codeinone reductase isoforms
Format: biochemical, Papaver somniferum
Details: NADPH as cofactor; physiologically forward reaction
Protocol: The two other potential substrates for reduction, the 1,2-dehydroreticulinium ion and salutaridine (FIG. 1), or for the physiologically reverse reaction, salutaridinol and (R)-reticuline, were tested as substrates; with the codeinone reductase isoforms.
In order to test for a functional evolutionary relationship between isoflavonoid and alkaloid anabolism, codeinone reductase was analyzed for the ability to substitute for the reductase in the formation of 6-deoxychalcone in co-action with either native chalcone synthase or native stilbene synthase from Pinus sylvestris.

CN1CC[C@]23c4c5ccc(O)c4O[C@H]2C(=O)CC[C@H]3[C@H]1C5 [hydromorphone]
serves as substrate in the reductive reaction: functions
